Test results taken from article PMC10999543, “Identification of kinase modulators as host-directed therapeutics against intracellular methicillin-resistant Staphylococcus aureus” (Frontiers in Cellular and Infection Microbiology, 2024).

Test system: HeLa cells
Test: Compound screen by flow cytometry: HeLa cell count as surrogate readout of cell viability (z-scoreHeLa); also: test concentration or dose not given here
Assay type: cell-based, human
Conditions: for cell count rep 1 / cell count rep 2 / cell count rep 3 / z-scoreHeLa mean / z-scoreHeLa rep 1 / z-scoreHeLa rep 2 / z-scoreHeLa rep 3: human

SMILES | cell death | cell count rep 1 | cell count rep 2 | cell count rep 3 | z-scoreHeLa mean | z-scoreHeLa rep 1 | z-scoreHeLa rep 2 | z-scoreHeLa rep 3
Fc1ccc(-c2ncn(C3CCNCC3)c2-c2ccnc(Oc3cccc(F)c3)n2)cc1 [SB-251505] | No | 24508 | 35794 | 37877 | 0.14 | 0.67 | 0.19 | -0.42
Fc1ccc(-c2ncn(C3CCNCC3)c2-c2ccnc(Oc3cccc(C(F)(F)F)c3)n2)cc1 [SB-253226] | No | 19768 | 24303 | 40741 | -0.66 | -0.0536 | -1.96 | 0.0339
Fc1ccc(-c2ncn(C3CCNCC3)c2-c2ccnc(Oc3ccc(Cl)cc3)n2)cc1 [SB-278539] | No | 20843 | 37327 | 42866 | 0.32 | 0.11 | 0.47 | 0.37
COc1ccccc1C1=C(Nc2ccc(O)c(Cl)c2)C(=O)NC1=O [SB-381904] | No | 26704 | 24480 | 37581 | -0.46 | 1.00 | -1.92 | -0.47
